{
  "source": "ChEMBL document CHEMBL1221219",
  "about": "“Selective blockade of 2-arachidonoylglycerol hydrolysis produces cannabinoid behavioral effects” (Nat Chem Biol, 2009)",
  "system": "Mus musculus",
  "experiment": "Inhibition of MAGL in C57B1/6J mouse brain membrane assessed as increase in 2-AG level at 16 mg/kg, ip upto 8 hrs by competitive activity-based protein profiling method relative to control",
  "type": "functional",
  "details": "route intraperitoneal",
  "data": [
    {"compound": "O=C(Oc1ccc([N+](=O)[O-])cc1)N1CCC(C(O)(c2ccc3c(c2)OCO3)c2ccc3c(c2)OCO3)CC1", "values": [
      {"measurement": "fold change (FC)", "value": 7}
    ]}
  ]
}
